According to patent publication US6656911B2, “Serine protease inhibitors” (Cortech, Inc., priority 1994, dated 2003):

Target: T1, human neutrophil elastase (HNE) (Homo sapiens, UniProt P08246)
T1 sequence (P08246 30-267): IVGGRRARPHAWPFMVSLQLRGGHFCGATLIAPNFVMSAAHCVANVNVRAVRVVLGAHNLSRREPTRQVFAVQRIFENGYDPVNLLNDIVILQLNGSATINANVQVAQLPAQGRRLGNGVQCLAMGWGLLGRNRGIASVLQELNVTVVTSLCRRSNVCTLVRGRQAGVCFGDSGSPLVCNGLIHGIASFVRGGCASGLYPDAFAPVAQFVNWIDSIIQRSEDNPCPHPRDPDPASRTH
Experiment: HNE Ki of CE compounds, tested as described in WO 96/16080
Assay type: biochemical

“3-[(4-Morpholino)aceto]amino-quinoline-2-one-N-[1-(2-[5-(3-methylbenzyl)-1,3,4-oxadiazolyl]carbonyl)-2-(S)-methylpropyl]acetamide [CE2116]” gave a Ki of 0.076 µM.
